According to patent US4937266A, “Inhibitory agent of hepatic fibrosis” (priority 1988, dated 1990):

Key:
[1] = system: prolyl hydroxylase; conditions: rabbit, in vivo
[2] = system: hepatic fibrosis; conditions: rabbit, in vivo

Question: With `CC(C)(CO)[C@@H](O)C(=O)NCCC(=O)NCCSSCCNC(=O)CCNC(=O)[C@H](O)C(C)(C)CO` [Pantethine, D-bis-(N-pantothenyl-β-aminoethyl)-disulfide] as the molecule, how does the “Prolyl Hydroxylase Activity, Kidney” value [1] read?
Answer: 672.3 ± 65.8 cpm/mg-protein

Question: What about the “effect on prolyl hydroxylase in the kidney (in words)” value [1] of the same molecule?
Answer: no effect

Question: What about the “inhibition of hepatic fibrosis (in words)” value [2] of the same molecule?
Answer: inhibitory on hepatic fibrosis
